# scFv variants of Ab-95 (light chain) against a SARS-CoV-2 spike peptide

From the AlphaSeq antibody data of Engelhart et al. 2022 (doi:10.1038/s41597-022-01779-4), copy in the FLAb collection.

Target: peptide PDVDLGDISGINAS, taken from heptad repeat 2 (HR2) of SARS-CoV-2 spike.

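The starting antibody came from a phage panning campaign against this peptide. Variants in AAYL52 differ from the parent at up to three CDR positions; double and triple changes were sampled at random. The scFvs were displayed on barcoded MATa yeast, the peptide on MATalpha yeast. Mating (16 h, 30 °C) was followed by selection of diploids and sequencing of their barcodes. Read counts were normalised to the haploid input and turned into Kd by a linear fit to BCL2-family pairs of known affinity, for each replicate. There are three technical replicates.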

Ab-95 is the parent antibody, in scFv form: VH, then three GGGGS repeats, then VL. The heavy chain is unchanged in all variants.
VH: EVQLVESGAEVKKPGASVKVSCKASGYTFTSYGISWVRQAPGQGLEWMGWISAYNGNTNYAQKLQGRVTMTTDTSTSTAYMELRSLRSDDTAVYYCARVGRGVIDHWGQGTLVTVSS
VL: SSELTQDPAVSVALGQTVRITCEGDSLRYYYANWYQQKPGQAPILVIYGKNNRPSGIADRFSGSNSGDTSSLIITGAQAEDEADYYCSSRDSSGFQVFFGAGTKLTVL

Each variant is given by its three light chain CDRs, as the data file delimits them; those of the parent are EGDSLRYYYAN, GKNNRPS, SSRDSSGFQVF.
Affinities are written as log10 Kd with Kd in nM; a lower number is a better binder.
A mean of the replicates is given; it leaves out those without a signal.
An entry "no signal" has no value in the source: the pair was not observed among the diploids in any replicate. This suggests poor binding but is not conclusive.
Nonspecific signal, from three strains lacking the peptide, appeared in 28% of pairings of library AAYL52, centred on 3.91 (5% of these signals below 2.90); values are not corrected for it. The control count says in how many pairings with the empty strains this scFv gave a signal.

| CDR-L1 | CDR-L2 | CDR-L3 | mean, log10 nM | detected | control signals |
|---|---|---|---|---|---|
| EGDSLMYYEAN | KKNNRPS | SSRDSSGFQVF | 3.02 | 3 of 3 | 3 of 9 |
| ERDSLRYYYAN | GKNNRQS | SSRDSIGFQVF | no signal | 0 of 3 | 1 of 9 |
| EGDSLRYYYAN | RANNRPS | SSRDISGFQVF | 4.61 | 1 of 3 | 4 of 9 |
| EGDSLRYYYAN | GKNNRPT | SSRASSGFQVY | 3.33 | 3 of 3 | 1 of 9 |
| EGDSLRYCYAN | GENNRPS | SSRDRSGFQVF | 1.63 | 3 of 3 | 3 of 9 |
| EGFSLRYYYAN | GKNNRPS | SSRRSSGFQRF | no signal | 0 of 3 | 0 of 9 |
| EGDSLRYTYAN | GKQNRPS | SSRDSSGHQVF | 1.81 | 3 of 3 | 6 of 9 |
| EGDSLRYYYAN | GKNNRDS | ESRDSSGQQVF | 2.18 | 3 of 3 | 1 of 9 |
| EGDSTRYYYAN | TKNNRPS | SSRDSCGFQVF | 3.76 | 3 of 3 | 6 of 9 |
| EGSSLRYYYAN | GKTNRPS | STRDSSGFQVF | 3.12 | 2 of 3 | 2 of 9 |
| EGDSLRYYYAN | GKNNRPS | SSQDSYIFQVF | 2.57 | 3 of 3 | 0 of 9 |
| EGYSLRYYYTN | GKNYRPS | SSRDSSGFQVF | 2.56 | 3 of 3 | 6 of 9 |
| EGDSLRPYYAN | GKNMRPS | SSRDSSGGQVF | 2.94 | 3 of 3 | 4 of 9 |
| EGDSLRMYYAN | GKNNEPS | SSRESSGFQVF | 3.60 | 2 of 3 | 1 of 9 |
| EGDSLRYYYAN | GRNNRPS | SSRDHEGFQVF | 2.51 | 3 of 3 | 0 of 9 |
| EGDSLRYYYMN | GKNNMPS | SQRDSSGFQVF | 3.24 | 2 of 3 | 0 of 9 |
| EGDSLRYYYWN | GKNNRPS | SSADSDGFQVF | no signal | 0 of 3 | 1 of 9 |
| EGDSLMYYYAN | GKRNRPS | MSRDSSGFQVF | 4.63 | 1 of 3 | 5 of 9 |
| EGDSLRYYYEN | GKNQRPS | SSRDSSGFQVA | no signal | 0 of 3 | 0 of 9 |
| EGDSLRYYWAN | GKNVRPS | SSRDSSGFQYF | 2.78 | 2 of 3 | 5 of 9 |
| EGDGLRYYYAN | GKNNRPS | SWRKSSGFQVF | 4.58 | 1 of 3 | 3 of 9 |
| EGQTLRYYYAN | AKNNRPS | SSRDSSGFQVF | 4.54 | 1 of 3 | 1 of 9 |
| EGHSLRYYYWN | GKNNRPS | SSRDSSPFQVF | 4.30 | 1 of 3 | 1 of 9 |
| EGHSLRYYYAR | GKNNRPS | SSRDSMGFQVF | 3.09 | 3 of 3 | 2 of 9 |
| EGQSLAYYYAN | GKNNRPS | SSRDSVGFQVF | 2.18 | 3 of 3 | 0 of 9 |
| EGDSLRYKYAN | GKNARPS | SSRDDSGFQVF | 3.05 | 2 of 3 | 0 of 9 |
| EGDSLPYYSAN | GKNNCPS | SSRDSSGFQVF | no signal | 0 of 3 | 2 of 9 |
| EGDSLRYYYAN | GKNNRPK | SSRGSTGFQVF | 4.03 | 2 of 3 | 2 of 9 |

Continued, with the values leading:

| mean, log10 nM | detected | control signals | CDR-L1 | CDR-L2 | CDR-L3 |
|---|---|---|---|---|---|
| 2.37 | 3 of 3 | 2 of 9 | EGDSLRYYYAN | GKNNRPS | SSGDSSGFDVF |
| 1.37 | 3 of 3 | 4 of 9 | EGDSLRYYPAN | GKNNRPS | LSRDSSGAQVF |
| 2.71 | 3 of 3 | 2 of 9 | EGLSLRYYYAN | GKNNRPS | SSRDSSGMQVF |
| 1.97 | 3 of 3 | 4 of 9 | EGDSLRYYGAN | GKCNRPS | SSRDSSGFEVF |
| 1.62 | 3 of 3 | 4 of 9 | EGQSLRHYYAN | GKNNRPS | SSRDSSGFQVF |
| 4.34 | 3 of 3 | 1 of 9 | EGDSLRYYYAN | GKNNRDF | SSRDSGGFQVF |
| 3.78 | 3 of 3 | 3 of 9 | EGDSLRHYYAN | GKNNRPS | SYRDSSGFQVC |
| 4.46 | 1 of 3 | 1 of 9 | EGDSLHYYYAI | GKNNRPS | SSRDSSGFQVR |
| 2.86 | 3 of 3 | 3 of 9 | EGDYLRYYYAN | GKNNRPS | SSRDSSEFQNF |
| 1.80 | 3 of 3 | 5 of 9 | EGDSLRYGYAN | GKYNRPS | SKRDSSGFQVF |
| 3.07 | 3 of 3 | 7 of 9 | MGDSLRYYYAN | GKNNRPS | SSRDSSQFCVF |
| no signal | 0 of 3 | 2 of 9 | EGDSLRYYYAN | GKNNRPF | KSRDSSSFQVF |
| 1.36 | 3 of 3 | 1 of 9 | EGDSLRRYYSN | GKNNRVS | SSRDSSGFQVF |
| 3.29 | 1 of 3 | 4 of 9 | EGDSMRYYYAN | TANNRPS | SSRDSSGFQVF |
| no signal | 0 of 3 | 0 of 9 | EGDSLRYPYAN | GKNNRPS | SSRYSSGKQVF |
| 5.34 | 1 of 3 | 0 of 9 | EGDSLRYYYAN | GKANRPS | SSRDSSGPQMF |
| 2.91 | 1 of 3 | 4 of 9 | ERDSLRYYYSN | VKNNRPS | SSRDSSGFQVF |
| 3.97 | 1 of 3 | 2 of 9 | ERDSLRYYYAN | GKNNRPS | ASVDSSGFQVF |
| 3.65 | 1 of 3 | 4 of 9 | EGDSLRYYYAN | GKNNRMN | SSRDSCGFQVF |
| 3.36 | 3 of 3 | 4 of 9 | QGPSLRYYYAG | GKNNRPS | SSRDSSGFQVF |
| 3.62 | 2 of 3 | 3 of 9 | EGDSLRQYYFN | GKNNRPP | SSRDSSGFQVF |
| no signal | 0 of 3 | 0 of 9 | EGDSLRYYQAN | GKNNRPS | YSRDSSGFGVF |
| 4.55 | 1 of 3 | 1 of 9 | EGDSLRYYKKN | GKLNRPS | SSRDSSGFQVF |
| 1.40 | 3 of 3 | 3 of 9 | EGDSLRGYYAN | GKNNRPS | SSRGSSGDQVF |
| 5.66 | 1 of 3 | 2 of 9 | EGDSLRYYYAN | GKNHRHS | SSRNSSGFQVF |
| no signal | 0 of 3 | 3 of 9 | EGDSLRYYYRN | GKNNRPS | SSRDSSGHQVF |
| 3.70 | 2 of 3 | 1 of 9 | EGDSLRQYYAN | YKNNRPS | SSRDSSGFQVF |
| 5.04 | 3 of 3 | 2 of 9 | EGDQLRYYYQN | GKNNRPS | SSVDSSGFQVF |
| no signal | 0 of 3 | 4 of 9 | MGDLLRYYYAL | GKNNRPS | SSRDSSGFQVF |

The 6 strongest on average among those seen in every replicate, once more:

| CDR-L1 | CDR-L2 | CDR-L3 | mean, log10 nM | detected | control signals |
|---|---|---|---|---|---|
| EGDSLRRYYSN | GKNNRVS | SSRDSSGFQVF | 1.36 | 3 of 3 | 1 of 9 |
| EGDSLRYYPAN | GKNNRPS | LSRDSSGAQVF | 1.37 | 3 of 3 | 4 of 9 |
| EGDSLRGYYAN | GKNNRPS | SSRGSSGDQVF | 1.40 | 3 of 3 | 3 of 9 |
| EGQSLRHYYAN | GKNNRPS | SSRDSSGFQVF | 1.62 | 3 of 3 | 4 of 9 |
| EGDSLRYCYAN | GENNRPS | SSRDRSGFQVF | 1.63 | 3 of 3 | 3 of 9 |
| EGDSLRYGYAN | GKYNRPS | SKRDSSGFQVF | 1.80 | 3 of 3 | 5 of 9 |